Measured properties of organic chemicals

Data: OPERA 2.9 data sets, kmansouri/OPERA on GitHub.

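The numbers are reported measurements, compiled and curated for the OPERA QSAR suite. The files give a single number for a compound and property, which may rest on several reports. Method, purity and exact conditions of the single measurements are not given. A value may pool stereoisomers or salt forms, and the file does not say which form was measured. Some upstream entries may be estimates or bounds without being marked so.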

The melting point is given in degrees Celsius.
The octanol-water partition coefficient is given as log10; larger values mean a more lipophilic compound.
Water solubility is log10 of mol/L, nominally at 25 °C; higher is more soluble.
Vapor pressures (log10 mmHg) refer to near room temperature, 15 to 30 °C; higher is more volatile.
The Henry's law constant is on a log10 scale in atm·m3/mol (set defined at 25 °C); higher favours air over water.
The unbound fraction in human plasma runs from 0 (all bound) to 1 (all free).
Clint is human hepatic intrinsic clearance in µL/min per million cells; 0 means that no clearance was seen.

For O=C([O-])CNCO.[Na+] [Sodium N-(hydroxymethyl)glycinate] the data give MP 193 °C and log Kow -1.533.
For Clc1cc(Cl)c(-c2ccccc2Cl)cc1Cl the data give log Kow 5.78 and vapor pressure -3.408 (log10 mmHg).
For O=C(O)C(F)(F)C(F)(F)C(F)(F)C(F)(F)C(F)(F)C(F)(F)F [Perfluoroheptanoic acid] the data give water solubility -0.489 (log10 mol/L) and log H -5.248 (log10 atm·m3/mol) and plasma fu 0.00164 and intrinsic clearance 0 µL/min/10^6 cells.
For COC(=O)c1ccccc1S(=O)(=O)NC(=O)Nc1nc(C)nc(OC)n1 [Metsulfuron-methyl] the data give water solubility -1.87 (log10 mol/L) and vapor pressure -11.6 (log10 mmHg) and plasma fu 0.08667.
For CC(C)C1(C)N=C(c2ncccc2C(=O)O)NC1=O (centres undefined) [Imazapyr] the data give vapor pressure -10.53 (log10 mmHg) and intrinsic clearance 0.39 µL/min/10^6 cells.
For C[C@]12C[C@H]3O[C@H]3C[C@@H]1CC[C@@H]1[C@@H]2CC[C@]2(C)[C@@H](O)[C@@H](N3CCCC3)C[C@@H]12 the data give MP 129.5 °C and log Kow 2.9.
For CCCCCCCC(=O)Cl [Caprylyl chloride] the data give log Kow 2.76 and log H -6.05 (log10 atm·m3/mol).
For CCCCC(CC)C(=O)OOC(C)(C)CC (centres undefined) [Hexaneperoxoic acid, 2-ethyl-, 1,1-dimethylpropyl ester] the data give log Kow 4.56 and water solubility -4.117 (log10 mol/L).
For CCCCNC(=O)OCC#CI [3-iodo-2-propynyl-n-butylcarbamate] the data give plasma fu 0.719 and intrinsic clearance 486 µL/min/10^6 cells.
For CCOP(=O)(SC(C)CC)N1CCSC1=O (centres undefined) [Fosthiazate] the data give plasma fu 0.46 and intrinsic clearance 0 µL/min/10^6 cells.
For O=C(Nc1ccccc1)Nc1cnns1 [Thidiazuron] the data give plasma fu 0.0284 and intrinsic clearance 4.92 µL/min/10^6 cells.
For COc1ccc(C(OC[C@H]2O[C@@H](n3ccc(NC(=O)c4ccccc4)nc3=O)C[C@@H]2OP(OCCC#N)N(C(C)C)C(C)C)(c2ccccc2)c2ccc(OC)cc2)cc1 (stereo partly specified) [Bz-dC Phosphoramidite] the data give water solubility -6.197 (log10 mol/L) and vapor pressure -8.974 (log10 mmHg).
For CCN1CCC2(CC1)COc1cc3c(cc12)N(C(=O)c1ccc(-c2ccc(-c4nnc(C)o4)cc2C)cc1)CC3.Cl the data give plasma fu 0.015 and intrinsic clearance 4.65 µL/min/10^6 cells.
For C[C@]12CC[C@H]3[C@@H](CCC4=CC(=O)CC[C@@]43C=O)[C@@H]1CC[C@@H]2O [19-Aldotestosterone] the data give MP 155 °C and log Kow 3.32 and water solubility -4.111 (log10 mol/L).
For C/C(=CC(=O)OC(C)C)/OP(=S)(NCC)OC (stereo partly drawn) the data give plasma fu 0.01148 and intrinsic clearance 16.24 µL/min/10^6 cells.
For CCC1(C)C(=O)NC(=O)NC1=O [5-Ethyl-5-methyl-1H,3H,5H-pyrimidin-2,4,6-trione] the data give MP 216 °C and water solubility -1.196 (log10 mol/L).
For C(COCC1CO1)OCC1CO1 (centres undefined) [Ethylene glycol diglycidyl ether] the data give log Kow -0.654 and vapor pressure -0.984 (log10 mmHg).
For CCCCOC(=O)CCP1(=O)Oc2ccccc2-c2ccccc21 (centres undefined) the data give log Kow 3.323 and vapor pressure -8.989 (log10 mmHg).
For Clc1cc(Cl)c(Cl)c(-c2cc(Cl)cc(Cl)c2Cl)c1 [2,2',3,3',5,5'-Hexachlorobiphenyl] the data give MP 65 °C and water solubility -6.96 (log10 mol/L) and vapor pressure -5.225 (log10 mmHg).
For c1ccc2c(c1)Nc1ccccc1S2 [Phenothiazine] the data give vapor pressure -6.314 (log10 mmHg) and intrinsic clearance 0 µL/min/10^6 cells.
For CCCSP(=S)(OCC)Oc1ccc(Cl)cc1Cl (centres undefined) [Prothiofos] the data give vapor pressure -5.648 (log10 mmHg) and log H -4.521 (log10 atm·m3/mol).
For CCC1(CC(C)C)C(=O)NC(=O)NC1=O [5-Ethyl-5-(2-methylpropyl)barbituric acid] the data give log Kow 1.69 and water solubility -5.142 (log10 mol/L).
For CCOP(=S)(OCC)Oc1cc(Cl)c(Br)cc1Cl [Bromophos-ethyl] the data give vapor pressure -4.337 (log10 mmHg) and log H -4.786 (log10 atm·m3/mol).
For CS(=O)(=O)c1ccc(C(=O)C2C(=O)CCCC2=O)c(Cl)c1COCC(F)(F)F [Tembotrione] the data give water solubility -1.19 (log10 mol/L) and plasma fu 0.0919.
For CC(C)(C)C(=O)O[C@H]1CC[C@]2(C)[C@H]3CC[C@]4(C)C(=O)[C@H]5C[C@H]5[C@H]4[C@@H]3C=C[C@]2(O)C1 the data give log Kow 3.9 and water solubility -4.825 (log10 mol/L).